According to patent US9023789B2, “Amylin analogs and pharmaceutical compositions thereof” (Novo Nordisk A/S, priority 2012, dated 2015):
≈ marks a conversion by molar mass, not a printed value. Where two headings read alike, the source gives them in different places.

Experiments:
[1] = ASSAY (III) ThT fibrillation assay for physical stability; format: physicochemical
Excerpt: Assay (III)—ThT Fibrillation Assays for the Assessment of Physical Stability of Protein Formulations Low physical stability of a polypeptide may lead to amyloid fibril formation, which is observed as well-ordered, thread-like macromolecular structures in the sample eventually resulting in gel formation. This has traditionally been measured by visual inspection of the sample. However, that kind of measurement is very subjective and depending on the observer. Therefore, the application of a small molecule indicator probe is much more advantageous. Thioflavin T (ThT) is such a probe and has a distinct fluorescence signature when binding to fibrils [Naiki et al. (1989) Anal. […] LeVine (1999) Methods. Enzymol. 09, 274-284]. […] Here, F is the ThT fluorescence at the time t. The constant t0 is the time needed to reach 50% of maximum fluorescence. […] Incubation and Fluorescence Measurement Incubation at given temperature, shaking and measurement of the ThT fluorescence emission were done in a Fluoroskan Ascent FL fluorescence platereader or Varioskan platereader (Thermo Labsystems). […] Fluorescence measurement was done using excitation through a 444 nm filter and measurement of emission through a 485 nm filter. […] The plate was measured every 20 minutes for a desired period of time. […] Concentrations were determined by reverse HPLC methods using a pramlintide standard as a reference. […]

[2] = ASSAY (IV) determination of solubility; format: physicochemical
Procedure: Assay (IV)—Determination of Solubility
The polypeptide was dissolved in water at −500 nmol/ml and mixed 1:1 with a series of buffers (100 mM glycylglycine pH 3.0, 100 mM glycylglycine pH 4.0, 100 mM glycylglycine pH 5.0, 100 mM bistrispropane pH 6.0, 100 mM bistrispropane pH 6.5, 100 mM bistrispropane pH 7.0, 100 mM bistrispropane pH 7.5, 100 mM bistrispropane pH 8.0). After 18 hours at room temperature the samples were centrifuged and the polypeptide concentration determined by UPLC.

rat calcitonin receptor = biological target: T1, rat calcitonin receptor (Rattus norvegicus, UniProt P32214); experiment: ASSAY (VIII) binding to the rat calcitonin receptor; conditions: Table 7, read-out: rCTR bind IC50
T1 construct: expressed in transfected cells; host or cells: BHK tk'ts 13 (transient, FuGENE 6), membranes
T1 sequence (P32214 25-479 isoform P32214-2 limits assumed): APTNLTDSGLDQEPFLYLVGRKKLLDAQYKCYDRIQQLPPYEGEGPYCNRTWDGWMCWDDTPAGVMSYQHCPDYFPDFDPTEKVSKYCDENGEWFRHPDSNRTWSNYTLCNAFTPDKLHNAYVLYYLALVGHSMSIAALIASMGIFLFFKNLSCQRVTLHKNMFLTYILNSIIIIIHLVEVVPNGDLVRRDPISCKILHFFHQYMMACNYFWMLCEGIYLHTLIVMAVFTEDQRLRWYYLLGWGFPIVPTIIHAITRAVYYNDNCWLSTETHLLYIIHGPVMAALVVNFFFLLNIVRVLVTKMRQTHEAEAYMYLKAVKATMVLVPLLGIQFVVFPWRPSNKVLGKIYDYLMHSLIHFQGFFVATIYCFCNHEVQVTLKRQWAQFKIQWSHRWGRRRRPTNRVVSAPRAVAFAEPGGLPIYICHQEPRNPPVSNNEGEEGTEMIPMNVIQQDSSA
Procedure: Assay (VIII)—Determination of Binding to the Rat Calcitonin Receptor
The BHK tk′ts 13 cells were transiently transfected with rat calcitonin receptor using FuGENE® 6 (Roche), according to the manufacturer's recommendations. Cells were grown in DMEM with 10% FBS and 1% Pen/Strep. Approximately 48 hours after transfection, the cells were harvested and membranes were prepared.

[3] = bistrispropane buffer, pH 6.5, read-out: Solubility pH 6.5 Concentration
[4] = bistrispropane buffer, pH 7.5, read-out: Solubility pH 7.5 Concentration
[5] = bistrispropane buffer, pH 6.0, read-out: Solubility pH 6.0 Concentration
[6] = bistrispropane buffer, pH 7.0, read-out: Solubility pH 7.0 Concentration
[7] = bistrispropane buffer, pH 8.0, read-out: Solubility pH 8.0 Concentration
[8] = glycylglycine buffer, pH 3.0, read-out: Solubility pH 3.0 Concentration
[9] = glycylglycine buffer, pH 4.0, read-out: Solubility pH 4.0 Concentration
[10] = glycylglycine buffer, pH 5.0, read-out: Solubility pH 5.0 Concentration

ThT pH 4.0 lag time (h) [1] [h]	solubility at 18 h [2, 3] [µM]	solubility at 18 h [2, 4] [µM]	solubility at 18 h [2, 5] [µM]	solubility at 18 h [2, 6] [µM]	solubility at 18 h [2, 7] [µM]	solubility at 18 h [2, 8] [µM]	solubility at 18 h [2, 9] [µM]	solubility at 18 h [2, 10] [µM]	IC50 (rat calcitonin receptor) [nM]	SMILES
2	≥ 200	84 (≈ 357 µg/mL)	≥ 200	163 (≈ 693 µg/mL)	65 (≈ 276 µg/mL)	≥ 200	≥ 200	≥ 200	15.3	CC[C@H](C)[C@H](NC(=O)[C@H](C)NC(=O)CNC(=O)[C@H](Cc1ccccc1)NC(=O)[C@H](CC(N)=O)NC(=O)[C@@H]1CCCN1C(=O)[C@H](CO)NC(=O)[C@H](CO)NC(=O)[C@H](Cc1c[nH]cn1)NC(=O)[C@H](CCCNC(=N)N)NC(=O)[C@H](CC(C)C)NC(=O)[C@H](Cc1ccccc1)NC(=O)[C@H](CC(N)=O)NC(=O)[C@H](C)NC(=O)[C@H](CC(C)C)NC(=O)[C@H](CCCNC(=N)N)NC(=O)[C@H](CCC(N)=O)NC(=O)[C@@H](NC(=O)[C@H](C)NC(=O)[C@@H]1CSSC[C@H](NC(=O)[C@@H](N)CCCCNC(=O)CCCCCCCCCCCCCCCCCCC(=O)O)C(=O)N[C@@H](CC(N)=O)C(=O)N[C@@H]([C@@H](C)O)C(=O)N[C@@H](C)C(=O)N[C@@H]([C@@H](C)O)C(=O)N1)[C@@H](C)O)C(=O)N1CCC[C@H]1C(=O)N[C@@H](CO)C(=O)N[C@@H](CO)C(=O)N[C@H](C(=O)N[C@@H](CC(N)=O)C(=O)N[C@H](C(=O)NCC(=O)N[C@@H](CO)C(=O)N[C@@H](CC(N)=O)C(=O)N[C@H](C(=O)N[C@@H](Cc1ccc(O)cc1)C(N)=O)[C@@H](C)O)C(C)C)[C@@H](C)O [Example 42]
24	≥ 200	≥ 200	≥ 200	≥ 200	195 (≈ 854 µg/mL)	≥ 200	≥ 200	≥ 200	27.9	CC[C@H](C)[C@H](NC(=O)[C@H](C)NC(=O)CNC(=O)[C@H](Cc1ccccc1)NC(=O)[C@H](CC(N)=O)NC(=O)[C@@H]1CCCN1C(=O)[C@H](CO)NC(=O)[C@H](CO)NC(=O)[C@H](Cc1c[nH]cn1)NC(=O)[C@H](CCCNC(=N)N)NC(=O)[C@H](CC(C)C)NC(=O)[C@H](Cc1ccccc1)NC(=O)[C@H](CC(N)=O)NC(=O)[C@H](C)NC(=O)[C@H](CC(C)C)NC(=O)[C@H](CCCNC(=N)N)NC(=O)[C@H](CCC(N)=O)NC(=O)[C@@H](NC(=O)[C@H](C)NC(=O)[C@@H]1CSSC[C@H](NC(=O)[C@H](CCCCN)NC(=O)CC[C@H](NC(=O)CCCCCCCCCCCCCCCCCCC(=O)O)C(=O)O)C(=O)N[C@@H](CC(N)=O)C(=O)N[C@@H]([C@@H](C)O)C(=O)N[C@@H](C)C(=O)N[C@@H]([C@@H](C)O)C(=O)N1)[C@@H](C)O)C(=O)N1CCC[C@H]1C(=O)N[C@@H](CO)C(=O)N[C@@H](CO)C(=O)N[C@H](C(=O)N[C@@H](CC(N)=O)C(=O)N[C@H](C(=O)NCC(=O)N[C@@H](CO)C(=O)N[C@@H](CC(N)=O)C(=O)N[C@H](C(=O)N[C@@H](Cc1ccc(O)cc1)C(N)=O)[C@@H](C)O)C(C)C)[C@@H](C)O [Example 21]
